Results reported in ChEMBL document CHEMBL1275533, “In vitro antibacterial activity of vertilmicin and its susceptibility to modifications by the recombinant AAC6'-APH2'' enzyme” (2008).

Assays:
Assay type in all cases: functional
[1] = tested on: Staphylococcus epidermidis; assay: Bactericidal activity against Staphylococcus epidermidis isolate 01-55 assessed as log reduction in viable-cell count at 0.25 MIC by time-kill study; details: 0.25 M
Escherichia coli [2] = assay: Bactericidal activity against Escherichia coli ATCC 25922 assessed as log reduction in viable-cell count at 0.5 MIC by time-kill study; details: 0.5 M
Klebsiella pneumoniae [3] = assay: Bactericidal activity against Klebsiella pneumoniae isolate 01-21 assessed as log reduction in viable-cell count at 0.25 MIC by time-kill study; details: 0.25 M
[4] = tested on: Staphylococcus epidermidis; assay: Bactericidal activity against Staphylococcus epidermidis isolate 01-55 assessed as log reduction in viable-cell count at 0.5 MIC by time-kill study; details: 0.5 M
Klebsiella pneumoniae [5] = assay: Bactericidal activity against Klebsiella pneumoniae isolate 01-21 assessed as log reduction in viable-cell count at 0.5 MIC by time-kill study; details: 0.5 M
Staphylococcus aureus [6] = assay: Bactericidal activity against Staphylococcus aureus ATCC 29213 assessed as log reduction in viable-cell count at 0.25 MIC by time-kill study; details: 0.25 M
Escherichia coli [7] = assay: Bactericidal activity against Escherichia coli ATCC 25922 assessed as log reduction in viable-cell count at 0.25 MIC by time-kill study; details: 0.25 M
Staphylococcus aureus [8] = assay: Bactericidal activity against Staphylococcus aureus ATCC 29213 assessed as log reduction in viable-cell count at 0.5 MIC by time-kill study; details: 0.5 M

Measured: FC

GENTAMICIN
3: [1] | Escherichia coli [2] | Klebsiella pneumoniae [3] | [4] | Klebsiella pneumoniae [5] | Staphylococcus aureus [6] | Escherichia coli [7] | Staphylococcus aureus [8]
